Assay results reported in patent US8440592B2, “Use of abscisic acid combinations for thinning” (Valent BioSciences Corporation, priority 2007, dated 2013).

Test system: grape and apple
Assay: Leaf drop and phytotoxic burns in the grape and apple thinning examples
Assay type: in vivo
Settings: ABA added to standard thinning treatments (GA3, BA)

(S)-5-(1-hydroxy-2,6,6,-trimethyl-4-oxo-2-cyclohexen-1-yl)-3-methyl-(2Z,4E)-pentadienoic acid [ABA]
Leaf drop or phytotoxic burns: without inducing leaf drop or causing phytotoxic burns
